Biological target: T1, human renal renin (Homo sapiens, UniProt P00797)
T1 construct: with human renal renin, free from acid proteolytic activity; from tissue; host or cells: human kidney (concluded from the word 'renal')
Experiment: in vitro inhibition of human renal renin (angiotensin I formed measured by radioimmunoassay)
Format: biochemical
Details: human renal renin with renin substrate (human angiotensinogen), 37° C., pH 6.0

The chains behind the UniProt entries cited, without tags or fusion partners. Residues count along the entry.
UniProt P00797, 67-406: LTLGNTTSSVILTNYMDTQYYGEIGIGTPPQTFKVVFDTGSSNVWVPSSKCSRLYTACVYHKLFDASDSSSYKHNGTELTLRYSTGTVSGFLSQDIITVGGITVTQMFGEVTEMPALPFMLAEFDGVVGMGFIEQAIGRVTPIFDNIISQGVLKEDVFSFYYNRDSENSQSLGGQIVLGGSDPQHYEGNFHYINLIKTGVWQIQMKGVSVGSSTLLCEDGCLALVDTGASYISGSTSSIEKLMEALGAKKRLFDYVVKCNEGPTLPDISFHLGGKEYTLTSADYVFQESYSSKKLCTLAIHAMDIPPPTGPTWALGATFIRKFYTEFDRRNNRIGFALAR

## (2S,3R,5R,8S,9R,10S)-7-Aza-2-(t butyloxycarbonylamino)-8-(cyclohexylmethyl)-5-isobutyl-12-methyl-1-phenyl- 3,9,10-trihydroxytridecane [Example 169]
  IC50: 6 nM

## 2(S)-[[(4-Cbz-1-Piperazinyl)carbonyl]oxy]-3-phenylpropionyl-Phe-His Amide of 2(S)-Amino-1-cyclohexyl-3(R),4(S)-dihydroxy-6-methylheptane [Example 114]
  IC50: 1.3 nM

## Ethoxycarbonyl-(OBn)Thr-His Amide of 2(S)-Amino-1-cyclohexyl-3(R),4(S)-dihydroxy-6-methylhexane [Example 101]
  IC50: 5 nM

## 2(S)-[[(1-Piperazinyl)carbonyl]oxy]-3-phenylpropionyl-Phe-His Amide of 2(S)-Amino-1-cyclohexyl-3(R),4(S)-dihydroxy-6-methylheptane [Example 115]
  IC50: 1 nM

## (2S,3R,5R,8S,9R,10S)-7-Aza-2-(t-Butyloxycarbonylamino)-8-(cyclohexylmethyl)-12-methyl 5 -(4-pentenyl)-1-phenyl-3,9,10-trihydroxytridecane [Example 183]
  IC50: 12 nM
